# Experimental data as given in patent publication US7875638B2, “Synthesis of epothilones, intermediates thereto, analogues and uses thereof” (Sloan-Kettering Institute for Cancer Research, priority 2002, dated 2011).
# Legend:
# [1] = preliminary metabolic degradation studies
# [2] = preliminary metabolic degradation studies; remark: listed apart in the source
substance,measurement,setting,value
"[17]ddEpoB [Compound 23, reference compound]",Degradation on exposure to human plasma,[1],≤ 30 min
same,Degradation on exposure to nude mouse plasma,[2],≤ 30 min
